Values quoted from earlier work in patent US5631263A, “Use of delta opioid receptor antagonists to treat immunoregulatory disorders” (Minneapolis Medical Research Foundation, priority 1995, dated 1997).

Tested on: guinea pig ileum (GPI)
Settings: standard result; cited from earlier work

C=CCN1CC[C@]23c4c5ccc(O)c4O[C@H]2C(=O)CC[C@@]3(O)[C@H]1C5 [naloxone]
block of morphine's effects: block morphine's effects
